Data from US12319655B2, “RAF kinase inhibitors and methods of use thereof” (Deciphera Pharmaceuticals, LLC, priority 2021, dated 2025).

Sequences of proteins named here, by UniProt entry; tags and fusion partners are left off. Residues count along the entry.
UniProt P15056, 416-766 V600E limits assumed: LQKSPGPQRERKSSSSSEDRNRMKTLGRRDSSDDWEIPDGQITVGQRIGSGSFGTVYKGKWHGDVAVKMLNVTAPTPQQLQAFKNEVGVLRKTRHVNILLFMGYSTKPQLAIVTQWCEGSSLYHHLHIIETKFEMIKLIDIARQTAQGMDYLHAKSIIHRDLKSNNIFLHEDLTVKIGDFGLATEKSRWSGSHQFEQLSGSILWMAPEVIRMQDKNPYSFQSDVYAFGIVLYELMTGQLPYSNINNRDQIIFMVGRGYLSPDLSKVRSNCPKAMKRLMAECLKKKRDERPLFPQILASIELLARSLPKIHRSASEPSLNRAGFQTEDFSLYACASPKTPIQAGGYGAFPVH
UniProt P04049, 307-648 Y340D/Y341D limits assumed: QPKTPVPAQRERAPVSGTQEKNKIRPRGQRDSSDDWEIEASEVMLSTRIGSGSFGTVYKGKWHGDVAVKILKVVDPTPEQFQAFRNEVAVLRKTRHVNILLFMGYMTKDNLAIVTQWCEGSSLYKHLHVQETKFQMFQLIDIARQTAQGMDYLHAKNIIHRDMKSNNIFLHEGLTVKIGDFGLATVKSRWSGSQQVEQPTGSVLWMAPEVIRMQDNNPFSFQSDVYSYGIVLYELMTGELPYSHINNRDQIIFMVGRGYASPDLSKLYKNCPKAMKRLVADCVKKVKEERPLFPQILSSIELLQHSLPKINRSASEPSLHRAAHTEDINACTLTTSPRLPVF

Legend:
[1] = molecular target: B-Raf (V600E) (SEQ. ID NO: 4) kinase (Homo sapiens (Human), UniProt P15056, V600E); test: Biochemical Assay for B-Raf (V600E) (1); conditions: read-out: BRAF VE (1) IC50, Table J, assay version (1)
Protocol: Biochemical Assay for B-Raf (V600E) (1)
Activity of B-Raf (V600E) (SEQ. ID NO: 4) kinase was determined spectroscopically using a coupled pyruvate kinase/lactate dehydrogenase assay that continuously monitors the ATP hydrolysis-dependent oxidation of NADH (e.g., Schindler et al., Science, 2000, 289, 1938-1942). Assays were conducted in 384-well plates (100 μL final volume) using 0.03 nM B-Raf (SignalChem), 1.5 units pyruvate kinase, 2.1 units lactate dehydrogenase, 1 mM phosphoenol pyruvate, 0.28 mM NADH, 30.1 nM MEK (SignalChem), and 1 mM ATP in assay buffer (100 mM Tris, Ph 7.5, 15 mM MgCl2, 0.5 mM DTT, 0.1% octyl-glucoside, 0.002% (w/v) BSA, and 0.002% Triton X-100). Inhibition of B-Raf (V600E) was measured by adding serial diluted test compound (final assay concentration of 1% DMSO). A decrease in absorption at 340 nm was monitored continuously for 6 h at 30° C. on a multi-mode microplate reader (BioTek). The reaction rate was calculated using the 3 to 4 h time frame. The reaction rate at each concentration of compound was converted to percent inhibition using controls (i.e., reaction with no test compound and reaction with a known inhibitor) and IC50 values were calculated by fitting a four-parameter sigmoidal curve to the data using Prism (GraphPad software).

[2] = molecular target: C-Raf kinase (SEQ. ID NO: 3) (Homo sapiens (Human), UniProt P04049, Y340D/Y341D); test: Biochemical Assay for C-Raf (1); conditions: read-out: CRAF (1) IC50; Table J, assay version (1)
Protocol: Biochemical Assay for C-Raf (1)
Activity of C-Raf kinase (SEQ. ID NO: 3) was determined spectroscopically using a coupled pyruvate kinase/lactate dehydrogenase assay that continuously monitors the ATP hydrolysis-dependent oxidation of NADH (e.g., Schindler et al., Science, 2000, 289, 1938-1942). Assays were conducted in 384-well plates (100 μL final volume) using 0.43 nM C-Raf (Sigma), 1.5 units pyruvate kinase, 2.1 units lactate dehydrogenase, 1 mM phosphoenol pyruvate, 0.28 mM NADH, 30.1 nM MEK (SignalChem), and 1 mM ATP in assay buffer (100 mM Tris, Ph 7.5, 15 mM MgCl2, 0.5 mM DTT, 0.1% octyl-glucoside, 0.002% (w/v) BSA, and 0.002% Triton X-100). Inhibition of C-Raf was measured by adding serial diluted test compound (final assay concentration of 1% DMSO). A decrease in absorption at 340 nm was monitored continuously for 6 h at 30° C. on a multi-mode microplate reader (BioTek). The reaction rate was calculated using the 4 to 5 h time frame. The reaction rate at each concentration of compound was converted to percent inhibition using controls (i.e., reaction with no test compound and reaction with a known inhibitor) and IC50 values were calculated by fitting a four-parameter sigmoidal curve to the data using Prism (GraphPad software).

Miapaca-2 cells = test: MiaPaca-2 Cell Proliferation Assay (1); conditions: read-out: MiaPaca2 (1) IC50, single agent
Protocol: MiaPaca-2 Cell Proliferation Assay (1)
Miapaca-2 cells (catalog #CRL-1420) are obtained from the American Type Culture Collect (ATTC, Manassas, VA). Briefly, cells were grown in DMEM supplemented with 10% characterized fetal bovine serum (Invitrogen, Carlsbad, CA), 2.5% New Zealand sourced horse serum and 1% Penicillin/Streptomycin/L-Glutamine at 37° C., 5% CO2, and 95% humidity. Cells are expanded until reaching 70-95% confluency at which point they are sub-cultured or harvested for assay use. A serial dilution of test compound is dispensed into a 96-well black clear bottom plate in triplicate. Three thousand cells are added per well in 200 μL complete growth medium in the 96-well plate. Plates are incubated for 67-72 h at 37° C., 5% CO2, and 95% humidity. At the end of the incubation, 40 μL of a 440 μM solution of resazurin (Sigma, St. Louis, MO) in PBS is added to each well of the plate and plates are incubated for an additional 5-6 h at 37° C., 5% CO2, and 95% humidity. Plates are read on a Synergy2 or equivalent reader (Biotek, Winooski VT) using an excitation of 540 nm and an emission of 600 nm. Data is analyzed using Prism software (GraphPad, San Diego, CA) to calculate IC50 values.

WM3928 cells = test: WM3928 Cell Proliferation Assay (1); conditions: read-out: WM3928 (1) IC50
Protocol: WM3928 Cell Proliferation Assay (1)
WM3928 cells (#WM3928-01-0001) are obtained from Rockland Immunochemicals Inc (Gilbertsville, PA). Briefly, cells were grown in MCDB 153 medium (Sigma, #M7403, St. Louis, MO) supplemented with 20% Leibovitz's L-15 (ThermoFisher #11415-064, Waltham, MA), 2% heat inactivated fetal bovine serum (ThermoFisher, #A3840001, Waltham, MA), 5 μg/mL Insulin (Bovine Pancreas) (Sigma, #I0516, St. Louis, MO), 1.68 mM Calcium Chloride (Sigma, #C-34006, St. Louis, MO) and 1% Penicillin/Streptomycin/L-Glutamine (ThermoFisher #10378016, Waltham, MA) at 37° C., 5% CO2, and 95% humidity. Cells are expanded until reaching 70-95% confluency at which point they are subcultured or harvested for assay use. A serial dilution of test compound is dispensed into a 96-well black clear bottom plate in triplicate. Three thousand cells are added per well in 200 μL complete growth medium in the 96-well plate. Plates are incubated for 67-72 hours at 37° C., 5% CO2, and 95% humidity. At the end of the incubation, 40 μL of a 440 μM solution of resazurin (Sigma, #199303, St. Louis, MO) in PBS is added to each well of the plate and plates are incubated for an additional 6-7 hours at 37° C., 5% CO2, and 95% humidity. Plates are read on a Synergy2 or equivalent reader (Biotek, Winooski VT) using an excitation of 540 nm and an emission of 600 nm. Data is analyzed using Prism software (GraphPad, San Diego, CA) to calculate IC50 values.

CNC(=O)c1cc(-c2cc(-c3cc(NC(=O)c4ccnc(C(F)(F)F)c4)ccc3C)ccn2)ccn1
IC50 [1]: < 0.1 µM
IC50 [2]: < 0.1 µM
IC50 (Miapaca-2 cells): 1 to 10 µM

CNC(=O)c1cc(-c2cc(-c3cc(NC(=O)c4ccnc(C(C)(C)C#N)c4)ccc3C)cc(C)n2)ccn1
IC50 [1]: < 0.1 µM
IC50 [2]: < 0.1 µM
IC50 (WM3928 cells): 0.1 to 0.5 µM

Cc1ccc(NC(=O)c2ccnc(C(C)(C)C#N)c2)cc1-c1cccc(-c2cc(NC3CN(C)C3)ncn2)c1
IC50 [1]: < 0.1 µM
IC50 [2]: 0.1 to 0.5 µM

Cc1ncc(NC(=O)c2cn(C(C)C)nn2)cc1-c1cccc(-c2cc(NC(=O)C3CC3)ncn2)c1
IC50 [1]: < 0.1 µM
IC50 [2]: < 0.1 µM
IC50 (Miapaca-2 cells): 1 to 10 µM
IC50 (WM3928 cells): 0.1 to 0.5 µM
